# Laboratory results as given in PMC12207533, “Structure-guided design of a methyltransferase-like 3 (METTL3) proteolysis targeting chimera (PROTAC) incorporating an indole–nicotinamide chemotype” (RSC Medicinal Chemistry, 2025).
# Amino acid sequences for entries named in this document (tags omitted). Residues count along the entry.
# UniProt Q86U44, 252-580 limits assumed: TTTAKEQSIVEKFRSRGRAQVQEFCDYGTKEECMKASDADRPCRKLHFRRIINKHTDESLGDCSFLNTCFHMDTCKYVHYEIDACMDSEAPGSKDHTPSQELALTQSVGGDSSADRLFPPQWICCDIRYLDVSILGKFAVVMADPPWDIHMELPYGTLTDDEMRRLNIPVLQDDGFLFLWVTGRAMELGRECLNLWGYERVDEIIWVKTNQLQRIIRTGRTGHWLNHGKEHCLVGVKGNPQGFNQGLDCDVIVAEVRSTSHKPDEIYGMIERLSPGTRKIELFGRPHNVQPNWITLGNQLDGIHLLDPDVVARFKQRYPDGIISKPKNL
# UniProt P40337, whole entry: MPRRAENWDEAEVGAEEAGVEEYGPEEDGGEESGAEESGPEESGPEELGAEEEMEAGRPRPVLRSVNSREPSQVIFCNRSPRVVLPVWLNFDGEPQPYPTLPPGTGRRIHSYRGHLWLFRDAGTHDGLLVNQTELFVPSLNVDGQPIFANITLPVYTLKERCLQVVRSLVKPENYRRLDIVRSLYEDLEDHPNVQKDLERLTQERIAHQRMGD
# UniProt Q96SW2, whole entry: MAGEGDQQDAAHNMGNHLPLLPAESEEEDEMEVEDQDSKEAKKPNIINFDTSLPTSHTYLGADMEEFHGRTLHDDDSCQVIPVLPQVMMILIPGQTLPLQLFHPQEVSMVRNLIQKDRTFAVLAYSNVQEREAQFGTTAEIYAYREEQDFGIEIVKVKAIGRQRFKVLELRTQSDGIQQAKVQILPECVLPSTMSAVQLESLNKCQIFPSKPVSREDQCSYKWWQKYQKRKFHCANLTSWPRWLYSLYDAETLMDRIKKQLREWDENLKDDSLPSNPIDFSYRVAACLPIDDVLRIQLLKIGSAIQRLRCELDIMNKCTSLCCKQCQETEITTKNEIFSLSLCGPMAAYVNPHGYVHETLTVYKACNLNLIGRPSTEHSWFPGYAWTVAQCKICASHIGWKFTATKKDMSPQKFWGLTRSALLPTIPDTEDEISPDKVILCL
# UniProt Q9HCE5, 108-444 partner limits assumed: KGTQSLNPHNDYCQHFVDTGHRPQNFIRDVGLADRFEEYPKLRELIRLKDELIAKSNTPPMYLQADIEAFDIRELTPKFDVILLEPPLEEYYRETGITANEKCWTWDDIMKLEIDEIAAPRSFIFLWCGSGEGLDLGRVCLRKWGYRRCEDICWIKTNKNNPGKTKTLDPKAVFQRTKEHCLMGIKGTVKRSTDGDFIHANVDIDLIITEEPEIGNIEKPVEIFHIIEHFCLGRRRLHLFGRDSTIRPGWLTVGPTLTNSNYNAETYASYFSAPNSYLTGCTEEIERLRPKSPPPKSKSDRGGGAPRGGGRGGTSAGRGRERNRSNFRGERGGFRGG
# UniProt Q15370, whole entry partner: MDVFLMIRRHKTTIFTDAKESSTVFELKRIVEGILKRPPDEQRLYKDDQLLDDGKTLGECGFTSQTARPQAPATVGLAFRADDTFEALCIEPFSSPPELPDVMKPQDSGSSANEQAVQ
# UniProt Q15369, whole entry partner: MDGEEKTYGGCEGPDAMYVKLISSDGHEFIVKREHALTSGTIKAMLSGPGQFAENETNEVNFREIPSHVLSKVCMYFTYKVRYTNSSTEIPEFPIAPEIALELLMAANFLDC
# Biological target: METTL3/14 (Homo sapiens, UniProt Q86U44)
# Test: Fluorescence polarization (FP) displacement assay with METTL3/14
# Conditions: read-out: KD METTL3; binary affinity; 300 nM METTL3/14, 20 nM STM-FL tracer
row,SMILES,pKd
1,O=C1CCC(N2C(=O)c3ccc(OCCOCCNCc4nc5ccc(CNC(=O)c6cc(=O)n7ccccc7n6)cc5[nH]4)cc3C2=O)C(=O)N1 (centres unmarked),< 4.00
2,CC1(C)CCN(Cc2cc3ccc(CNC(=O)c4cc(Br)cc5[nH]ncc45)cc3[nH]2)CC1,7.27
3,Cc1ncsc1-c1ccc(CNC(=O)[C@@H]2C[C@@H](O)CN2C(=O)[C@@H](NC(=O)CCOCCOCCOCCNC(=O)CC2(CNCc3nc4ccc(CNC(=O)c5cc(=O)n6ccccc6n5)cc4[nH]3)CCCCC2)C(C)(C)C)cc1,6.51
4,Cc1ncsc1-c1ccc(CNC(=O)[C@@H]2C[C@@H](O)CN2C(=O)[C@H](C(C)C)N2Cc3ccccc3C2=O)c(OCCOCCOCCOCCNCc2nc3ccc(CNC(=O)c4cc(=O)n5ccccc5n4)cc3[nH]2)c1,5.40
5,COCCOCCOCCOCCNC(=O)CC1(CNCc2nc3ccc(CNC(=O)c4cc(=O)n5ccccc5n4)cc3[nH]2)CCCCC1,6.36
6,O=C1CCC(N2C(=O)c3ccc(OCCOCCOCCOCCOCCOCCNCc4nc5ccc(CNC(=O)c6cc(=O)n7ccccc7n6)cc5[nH]4)cc3C2=O)C(=O)N1 (centres unmarked),4.50
7,O=C1CCC(N2C(=O)c3ccc(OCCOCCOCCOCCNCc4nc5ccc(CNC(=O)c6cc(=O)n7ccccc7n6)cc5[nH]4)cc3C2=O)C(=O)N1 (centres unmarked),5.14
8,Cc1ncsc1-c1ccc(CNC(=O)[C@@H]2C[C@@H](O)CN2C(=O)[C@H](C(C)C)N2Cc3ccccc3C2=O)c(OCCOCCOCCNCc2nc3ccc(CNC(=O)c4cc(=O)n5ccccc5n4)cc3[nH]2)c1,5.36
9,O=C1CCC(N2C(=O)c3cccc(OCCOCCOCCOCCOCCNCc4nc5ccc(CNC(=O)c6cc(=O)n7ccccc7n6)cc5[nH]4)c3C2=O)C(=O)N1 (centres unmarked),4.98
10,O=C1CCC(N2C(=O)c3cccc(OCCOCCOCCOCCOCCOCCNCc4nc5ccc(CNC(=O)c6cc(=O)n7ccccc7n6)cc5[nH]4)c3C2=O)C(=O)N1 (centres unmarked),5.21
11,O=C1CCC(N2C(=O)c3cccc(OCCOCCOCCOCCNCc4nc5ccc(CNC(=O)c6cc(=O)n7ccccc7n6)cc5[nH]4)c3C2=O)C(=O)N1 (centres unmarked),4.58
12,O=C1CCC(N2C(=O)c3cccc(OCCOCCNCc4nc5ccc(CNC(=O)c6cc(=O)n7ccccc7n6)cc5[nH]4)c3C2=O)C(=O)N1 (centres unmarked),5.09
13,Cc1ncsc1-c1ccc(CNC(=O)[C@@H]2C[C@@H](O)CN2C(=O)[C@@H](NC(=O)CCOCCOCCOCCOCCNCc2nc3ccc(CNC(=O)c4cc(=O)n5ccccc5n4)cc3[nH]2)C(C)(C)C)cc1,4.42
14,O=C1CCC(N2C(=O)c3ccc(OCCOCCOCCNCc4nc5ccc(CNC(=O)c6cc(=O)n7ccccc7n6)cc5[nH]4)cc3C2=O)C(=O)N1 (centres unmarked),5.19
15,Cc1ncsc1-c1ccc(CNC(=O)[C@@H]2C[C@@H](O)CN2C(=O)[C@@H](NC(=O)C2CCN(C(=O)c3ccc(-c4cc(-c5cn(Cc6cn7cc(CN8CCC(C)(C)CC8)ccc7n6)nn5)c5cn[nH]c5c4)cc3)CC2)C(C)(C)C)cc1,6.65
16,Cc1ncsc1-c1ccc(CNC(=O)[C@@H]2C[C@@H](O)CN2C(=O)[C@@H](NC(=O)CCc2ccc(C#Cc3ccc(COc4cncc(C(=O)NCc5ccc6cc(CN7CCC(C)(C)CC7)[nH]c6c5)c4)cc3)cc2)C(C)(C)C)cc1,6.80
17,COCCOCCOCCOCCNCc1nc2ccc(CNC(=O)c3cc(=O)n4ccccc4n3)cc2[nH]1,4.98
18,Cc1ncsc1-c1ccc(CNC(=O)[C@@H]2C[C@@H](O)CN2C(=O)[C@@H](NC(=O)CCCOc2ccc(-c3cc(-c4cn(Cc5cn6cc(CN7CCC(C)(C)CC7)ccc6n5)nn4)c4cn[nH]c4c3)cc2)C(C)(C)C)cc1,5.61
19,Cc1ncsc1-c1ccc(CNC(=O)[C@@H]2C[C@@H](O)CN2C(=O)[C@@H](NC(=O)CCOCCOCCOCCOCCOCCNCc2nc3ccc(CNC(=O)c4cc(=O)n5ccccc5n4)cc3[nH]2)C(C)(C)C)cc1,4.79
20,O=C1CCC(N2C(=O)c3ccc(OCCOCCOCCOCCOCCNCc4nc5ccc(CNC(=O)c6cc(=O)n7ccccc7n6)cc5[nH]4)cc3C2=O)C(=O)N1 (centres unmarked),4.71
21,Cc1ncsc1-c1ccc(CNC(=O)[C@@H]2C[C@@H](O)CN2C(=O)[C@@H](NC(=O)CCc2ccc(-c3cc(-c4cn(Cc5cn6cc(CN7CCC(C)(C)CC7)ccc6n5)nn4)c4cn[nH]c4c3)cc2)C(C)(C)C)cc1,6.58
22,O=C1CCC(N2C(=O)c3cccc(OCCOCCOCCNCc4nc5ccc(CNC(=O)c6cc(=O)n7ccccc7n6)cc5[nH]4)c3C2=O)C(=O)N1 (centres unmarked),4.98
23,Cc1ncsc1-c1ccc(CNC(=O)[C@@H]2C[C@@H](O)CN2C(=O)[C@@H](NC(=O)CCOCCOCCNCc2nc3ccc(CNC(=O)c4cc(=O)n5ccccc5n4)cc3[nH]2)C(C)(C)C)cc1,4.90
24,Cc1ncsc1-c1ccc(CNC(=O)[C@@H]2C[C@@H](O)CN2C(=O)[C@H](C(C)C)N2Cc3ccccc3C2=O)c(OCCOCCOCCOCCOCCNCc2nc3ccc(CNC(=O)c4cc(=O)n5ccccc5n4)cc3[nH]2)c1,5.12
25,Cc1ncsc1-c1ccc(CNC(=O)[C@@H]2C[C@@H](O)CN2C(=O)[C@@H](NC(=O)CCOCCOCCNC(=O)CC2(CNCc3nc4ccc(CNC(=O)c5cc(=O)n6ccccc6n5)cc4[nH]3)CCCCC2)C(C)(C)C)cc1,6.37
26,Cc1ncsc1-c1ccc(CNC(=O)[C@@H]2C[C@@H](O)CN2C(=O)[C@H](C(C)C)N2Cc3ccccc3C2=O)c(OCCOCCOCCOCCOCCOCCNCc2nc3ccc(CNC(=O)c4cc(=O)n5ccccc5n4)cc3[nH]2)c1,5.29

# Biological target: human VHL (Homo sapiens, UniProt P40337)
# Test: HTRF human VHL binding kit
# Conditions: read-out: KD E3-ligases (VHL, HTRF), binary
# Experimental: (§1) PROTACs binding to VHL or CRBN were measured using a homogeneous time-resolved fluorescence (HTRF) human VHL or CRBN binding kit (Revvity). Samples were prepared according to the manufacturer's protocol, with compounds diluted in the provided diluent while maintaining a constant DMSO concentration with a final concentration of 1.25%. For the ternary KD determinations, METTL3/14 was added at 4 μM, corresponding to approximately a 20- to 40-fold excess of binary KD, while all other component concentrations were kept as specified in the protocol. Measurements were performed in triplicate using a Tecan Spark 10 M plate reader, recording donor and acceptor emissions at λem_donor = 620 nm and λem_acceptor = 665 nm, respectively, following excitation of the HTRF donor at λex = 320 nm. The acceptor-to-donor emission ratio was calculated as ratio = signal 665 nm/signal 620 nm. Using GraphPad Prism 8.0.1, the fluorescence values were normalized, and KD values were calculated as specified above.
row,SMILES,pKd
1,Cc1ncsc1-c1ccc(CNC(=O)[C@@H]2C[C@@H](O)CN2C(=O)[C@@H](NC(=O)CCOCCOCCOCCNC(=O)CC2(CNCc3nc4ccc(CNC(=O)c5cc(=O)n6ccccc6n5)cc4[nH]3)CCCCC2)C(C)(C)C)cc1,6.84

# Biological target: human CRBN (Homo sapiens, UniProt Q96SW2)
# Test: HTRF human CRBN binding kit
# Conditions: read-out: KD E3-ligases (CRBN); HTRF Human Cereblon Binding Kit, binary
# Experimental: as §1
row,SMILES,pKd
1,O=C1CCC(N2C(=O)c3cccc(OCCOCCOCCOCCOCCOCCNCc4nc5ccc(CNC(=O)c6cc(=O)n7ccccc7n6)cc5[nH]4)c3C2=O)C(=O)N1 (centres unmarked),5.53
2,O=C1CCC(N2C(=O)c3ccc(OCCOCCOCCNCc4nc5ccc(CNC(=O)c6cc(=O)n7ccccc7n6)cc5[nH]4)cc3C2=O)C(=O)N1 (centres unmarked),5.66

# pKd: −log10 of the molar value.
